Results on 1 compound are retold here after patent publication US8309534B2, “Compositions comprising a GPR109 ligand for treating disorders of the digestive tract and/or cancer” (Medical College of Georgia Research Institute, Inc., priority 2007, dated 2012).

The test system of this test is LPS-induced activation of NF-κB promoter in CCD841 cells. The settings on record: ligand 1 mM 8 h, then LPS 100 ng/ml 4 h, luciferase. The source says:
The anti-inflammatory effect of butyrate was monitored in colonic cells by its ability to suppress LPS-induced activation of NF-κB promoter with luciferase as the reporter. The participation of SLC5A8 and GPR109A in mediating the effects of extracellular butyrate was differentiated first by using specific ligands. If SLC5A8 is involved in the process, the transporter-facilitated entry of butyrate followed by inhibition of histone deacetylases (HDACs) inside the cells would be responsible for the effects. If GPR109A is involved in the process, the activation of the receptor by extracellular butyrate would be responsible for the effects. […] In these experiments, cells were first transfected with the construct carrying the NF-κB-luciferase, pretreated with GPR109A ligands (1 mM) for 8 h and then exposed to LPS (100 ng/ml) for 4 h. Following the treatment, cell lysates were used to measure luciferase activity as a read-out for activation of NF-κB.

For `CC1(c2ccccc2)OC(C(=O)O)=CC1=O` (stereo not shown) [acifran], the “effect on LPS-induced activation of NF-κB promoter” value is on record as “able to block LPS-induced activation of NF-κB promoter”.
